Measurements taken from patent publication US4479951A, “1.4;3.6-Dianhydrohexitol nitrates substituted by purine bases, processes for their preparation and pharmaceutical compositions” (Dr. Willmar Schwabe GmbH & Co., priority 1980, dated 1984).

Tested on: mongrel dogs
Test: circulatory-pharmacological effectiveness on the narcotised dog, intravenous administration
Type: in vivo

O=[N+]([O-])O[C@H]1CO[C@H]2[C@@H]1OC[C@H]2O[N+](=O)[O-]
APdiast: diastolic aorta pressure (2 min after i.v. 1 mg/kg): 99.4 mm.Hg | APsyst: systolic aorta pressure (2 min after i.v. 1 mg/kg): 145.7 mm.Hg | BFFem: blood flow in the A. femoralis, referred to 20 kg. body weight (2 min after i.v. 1 mg/kg): 31.2 mL/min | HF: heart frequency (2 min after i.v. 1 mg/kg): 143.7 min⁻¹ | HLL: heart capacity left, referred to 20 kg. body weight (2 min after i.v. 1 mg/kg): 0.94 W | HLR: heart capacity right, referred to 20 kg. body weight (2 min after i.v. 1 mg/kg): 85.3 mW | HZV: heart minute volume, referred to 20 kg. body weight (2 min after i.v. 1 mg/kg): 3.8 min⁻¹ | LVEDP: end diastolic pressure in the left ventricle (2 min after i.v. 1 mg/kg): 4.97 mm.Hg | PAP: average pressure in the A. pulmonalis (2 min after i.v. 1 mg/kg): 11.1 ±0.7 mm.Hg | PRA: pressure in the right atrium (2 min after i.v. 1 mg/kg): 1.12 mm.Hg | SV: beat volume, referred to 20 kg. body weight (2 min after i.v. 1 mg/kg): 26.3 mL | WAP: pulmonalis resistance, referred to 20 kg. body weight (2 min after i.v. 1 mg/kg): 0.23 U | WFem: femoralis resistance, referred to 20 kg. body weight (2 min after i.v. 1 mg/kg): 0.55 KU | WTP: total peripheral resistance, referred to 20 kg. body weight (2 min after i.v. 1 mg/kg): 4.02 U | dp/dt: rate of pressure increase in the left ventricle (2 min after i.v. 1 mg/kg): 2868.7 mm.Hg/sec. | APdiast: diastolic aorta pressure (5 min after i.v. 1 mg/kg): 102.2 mm.Hg | APsyst: systolic aorta pressure (5 min after i.v. 1 mg/kg): 152.9 mm.Hg | BFFem: blood flow in the A. femoralis, referred to 20 kg. body weight (5 min after i.v. 1 mg/kg): 35.4 mL/min | HF: heart frequency (5 min after i.v. 1 mg/kg): 133.5 min⁻¹ | HLL: heart capacity left, referred to 20 kg. body weight (5 min after i.v. 1 mg/kg): 0.95 W | HLR: heart capacity right, referred to 20 kg. body weight (5 min after i.v. 1 mg/kg): 81.4 mW | HZV: heart minute volume, referred to 20 kg. body weight (5 min after i.v. 1 mg/kg): 3.7 min⁻¹ | LVEDP: end diastolic pressure in the left ventricle (5 min after i.v. 1 mg/kg): 5.81 mm.Hg | PAP: average pressure in the A. pulmonalis (5 min after i.v. 1 mg/kg): 11.5 ±0.8 mm.Hg | PRA: pressure in the right atrium (5 min after i.v. 1 mg/kg): 1.72 mm.Hg | SV: beat volume, referred to 20 kg. body weight (5 min after i.v. 1 mg/kg): 27.4 mL | WAP: pulmonalis resistance, referred to 20 kg. body weight (5 min after i.v. 1 mg/kg): 0.22 U | WFem: femoralis resistance, referred to 20 kg. body weight (5 min after i.v. 1 mg/kg): 0.49 KU | WTP: total peripheral resistance, referred to 20 kg. body weight (5 min after i.v. 1 mg/kg): 4.39 U | dp/dt: rate of pressure increase in the left ventricle (5 min after i.v. 1 mg/kg): 2606.2 mm.Hg/sec. | APdiast: diastolic aorta pressure (7 min after i.v. 1 mg/kg): 100.3 mm.Hg | APsyst: systolic aorta pressure (7 min after i.v. 1 mg/kg): 152.9 mm.Hg | BFFem: blood flow in the A. femoralis, referred to 20 kg. body weight (7 min after i.v. 1 mg/kg): 37.3 mL/min | HF: heart frequency (7 min after i.v. 1 mg/kg): 128.7 min⁻¹ | HLL: heart capacity left, referred to 20 kg. body weight (7 min after i.v. 1 mg/kg): 0.85 W | HLR: heart capacity right, referred to 20 kg. body weight (7 min after i.v. 1 mg/kg): 83.0 mW | HZV: heart minute volume, referred to 20 kg. body weight (7 min after i.v. 1 mg/kg): 3.3 min⁻¹ | LVEDP: end diastolic pressure in the left ventricle (7 min after i.v. 1 mg/kg): 6.0 mm.Hg | PAP: average pressure in the A. pulmonalis (7 min after i.v. 1 mg/kg): 12.6 ±1.4 mm.Hg | PRA: pressure in the right atrium (7 min after i.v. 1 mg/kg): 1.78 mm.Hg | SV: beat volume, referred to 20 kg. body weight (7 min after i.v. 1 mg/kg): 25.9 mL | WAP: pulmonalis resistance, referred to 20 kg. body weight (7 min after i.v. 1 mg/kg): 0.27 U | WFem: femoralis resistance, referred to 20 kg. body weight (7 min after i.v. 1 mg/kg): 0.45 KU | WTP: total peripheral resistance, referred to 20 kg. body weight (7 min after i.v. 1 mg/kg): 4.72 U | dp/dt: rate of pressure increase in the left ventricle (7 min after i.v. 1 mg/kg): 2587.5 mm.Hg/sec. | APdiast: diastolic aorta pressure (10 min after i.v. 1 mg/kg): 98.4 mm.Hg | APsyst: systolic aorta pressure (10 min after i.v. 1 mg/kg): 152.9 mm.Hg | BFFem: blood flow in the A. femoralis, referred to 20 kg. body weight (10 min after i.v. 1 mg/kg): 38.4 mL/min | HF: heart frequency (10 min after i.v. 1 mg/kg): 121.7 min⁻¹ | HLL: heart capacity left, referred to 20 kg. body weight (10 min after i.v. 1 mg/kg): 0.84 W | HLR: heart capacity right, referred to 20 kg. body weight (10 min after i.v. 1 mg/kg): 82.4 mW | HZV: heart minute volume, referred to 20 kg. body weight (10 min after i.v. 1 mg/kg): 3.4 min⁻¹ | LVEDP: end diastolic pressure in the left ventricle (10 min after i.v. 1 mg/kg): 6.28 mm.Hg | PAP: average pressure in the A. pulmonalis (10 min after i.v. 1 mg/kg): 12.6 ±1.4 mm.Hg | PRA: pressure in the right atrium (10 min after i.v. 1 mg/kg): 1.87 mm.Hg | SV: beat volume, referred to 20 kg. body weight (10 min after i.v. 1 mg/kg): 27.4 mL | WAP: pulmonalis resistance, referred to 20 kg. body weight (10 min after i.v. 1 mg/kg): 0.26 U | WFem: femoralis resistance, referred to 20 kg. body weight (10 min after i.v. 1 mg/kg): 0.42 KU | WTP: total peripheral resistance, referred to 20 kg. body weight (10 min after i.v. 1 mg/kg): 4.66 U | dp/dt: rate of pressure increase in the left ventricle (10 min after i.v. 1 mg/kg): 2550.0 mm.Hg/sec. | APdiast: diastolic aorta pressure (15 min after i.v. 1 mg/kg): 98.4 mm.Hg | APsyst: systolic aorta pressure (15 min after i.v. 1 mg/kg): 154.8 mm.Hg | BFFem: blood flow in the A. femoralis, referred to 20 kg. body weight (15 min after i.v. 1 mg/kg): 40.9 mL/min | HF: heart frequency (15 min after i.v. 1 mg/kg): 118.2 min⁻¹ | HLL: heart capacity left, referred to 20 kg. body weight (15 min after i.v. 1 mg/kg): 0.79 W | HLR: heart capacity right, referred to 20 kg. body weight (15 min after i.v. 1 mg/kg): 78.9 mW | HZV: heart minute volume, referred to 20 kg. body weight (15 min after i.v. 1 mg/kg): 3.2 min⁻¹ | LVEDP: end diastolic pressure in the left ventricle (15 min after i.v. 1 mg/kg): 6.47 mm.Hg | PAP: average pressure in the A. pulmonalis (15 min after i.v. 1 mg/kg): 12.7 ±1.6 mm.Hg | PRA: pressure in the right atrium (15 min after i.v. 1 mg/kg): 1.97 mm.Hg | SV: beat volume, referred to 20 kg. body weight (15 min after i.v. 1 mg/kg): 26.8 mL | WAP: pulmonalis resistance, referred to 20 kg. body weight (15 min after i.v. 1 mg/kg): 0.26 U | WFem: femoralis resistance, referred to 20 kg. body weight (15 min after i.v. 1 mg/kg): 0.41 KU | WTP: total peripheral resistance, referred to 20 kg. body weight (15 min after i.v. 1 mg/kg): 4.96 U | dp/dt: rate of pressure increase in the left ventricle (15 min after i.v. 1 mg/kg): 2512.5 mm.Hg/sec. | APdiast: diastolic aorta pressure (20 min after i.v. 1 mg/kg): 96.6 mm.Hg | APsyst: systolic aorta pressure (20 min after i.v. 1 mg/kg): 154.8 mm.Hg | BFFem: blood flow in the A. femoralis, referred to 20 kg. body weight (20 min after i.v. 1 mg/kg): 40.9 mL/min | HF: heart frequency (20 min after i.v. 1 mg/kg): 112.5 min⁻¹ | HLL: heart capacity left, referred to 20 kg. body weight (20 min after i.v. 1 mg/kg): 0.78 W | HLR: heart capacity right, referred to 20 kg. body weight (20 min after i.v. 1 mg/kg): 75.3 mW | HZV: heart minute volume, referred to 20 kg. body weight (20 min after i.v. 1 mg/kg): 3.1 min⁻¹ | LVEDP: end diastolic pressure in the left ventricle (20 min after i.v. 1 mg/kg): 6.75 mm.Hg | PAP: average pressure in the A. pulmonalis (20 min after i.v. 1 mg/kg): 12.6 ±1.3 mm.Hg | PRA: pressure in the right atrium (20 min after i.v. 1 mg/kg): 2.15 mm.Hg | SV: beat volume, referred to 20 kg. body weight (20 min after i.v. 1 mg/kg): 27.9 mL | WAP: pulmonalis resistance, referred to 20 kg. body weight (20 min after i.v. 1 mg/kg): 0.25 U | WFem: femoralis resistance, referred to 20 kg. body weight (20 min after i.v. 1 mg/kg): 0.40 KU | WTP: total peripheral resistance, referred to 20 kg. body weight (20 min after i.v. 1 mg/kg): 4.92 U | dp/dt: rate of pressure increase in the left ventricle (20 min after i.v. 1 mg/kg): 2418.7 mm.Hg/sec. | APdiast: diastolic aorta pressure (25 min after i.v. 1 mg/kg): 98.4 mm.Hg | APsyst: systolic aorta pressure (25 min after i.v. 1 mg/kg): 156.6 mm.Hg | BFFem: blood flow in the A. femoralis, referred to 20 kg. body weight (25 min after i.v. 1 mg/kg): 41.9 mL/min | HF: heart frequency (25 min after i.v. 1 mg/kg): 112.0 min⁻¹ | HLL: heart capacity left, referred to 20 kg. body weight (25 min after i.v. 1 mg/kg): 0.76 W | HLR: heart capacity right, referred to 20 kg. body weight (25 min after i.v. 1 mg/kg): 76.3 mW | HZV: heart minute volume, referred to 20 kg. body weight (25 min after i.v. 1 mg/kg): 3.0 min⁻¹ | LVEDP: end diastolic pressure in the left ventricle (25 min after i.v. 1 mg/kg): 7.03 mm.Hg | PAP: average pressure in the A. pulmonalis (25 min after i.v. 1 mg/kg): 13.3 ±1.5 mm.Hg | PRA: pressure in the right atrium (25 min after i.v. 1 mg/kg): 2.38 mm.Hg | SV: beat volume, referred to 20 kg. body weight (25 min after i.v. 1 mg/kg): 26.8 mL | WAP: pulmonalis resistance, referred to 20 kg. body weight (25 min after i.v. 1 mg/kg): 0.27 U | WFem: femoralis resistance, referred to 20 kg. body weight (25 min after i.v. 1 mg/kg): 0.40 KU | WTP: total peripheral resistance, referred to 20 kg. body weight (25 min after i.v. 1 mg/kg): 5.22 U | dp/dt: rate of pressure increase in the left ventricle (25 min after i.v. 1 mg/kg): 2456.2 mm.Hg/sec. | APdiast: diastolic aorta pressure (30 min after i.v. 1 mg/kg): 98.1 mm.Hg | APsyst: systolic aorta pressure (30 min after i.v. 1 mg/kg): 155.6 mm.Hg | BFFem: blood flow in the A. femoralis, referred to 20 kg. body weight (30 min after i.v. 1 mg/kg): 41.5 mL/min | HF: heart frequency (30 min after i.v. 1 mg/kg): 110.0 min⁻¹ | HLL: heart capacity left, referred to 20 kg. body weight (30 min after i.v. 1 mg/kg): 0.76 W | HLR: heart capacity right, referred to 20 kg. body weight (30 min after i.v. 1 mg/kg): 78.6 mW | HZV: heart minute volume, referred to 20 kg. body weight (30 min after i.v. 1 mg/kg): 3.0 min⁻¹ | LVEDP: end diastolic pressure in the left ventricle (30 min after i.v. 1 mg/kg): 7.22 mm.Hg | PAP: average pressure in the A. pulmonalis (30 min after i.v. 1 mg/kg): 13.5 ±1.5 mm.Hg | PRA: pressure in the right atrium (30 min after i.v. 1 mg/kg): 2.34 mm.Hg | SV: beat volume, referred to 20 kg. body weight (30 min after i.v. 1 mg/kg): 27.8 mL | WAP: pulmonalis resistance, referred to 20 kg. body weight (30 min after i.v. 1 mg/kg): 0.27 U | WFem: femoralis resistance, referred to 20 kg. body weight (30 min after i.v. 1 mg/kg): 0.40 KU | WTP: total peripheral resistance, referred to 20 kg. body weight (30 min after i.v. 1 mg/kg): 5.13 U | dp/dt: rate of pressure increase in the left ventricle (30 min after i.v. 1 mg/kg): 2390.6 mm.Hg/sec.
